Results from patent US9119808B1, “Treating neurodegenerative diseases with GGA or a derivative thereof” (COYOTE PHARMACEUTICALS, INC., priority 2012, dated 2015).

System: SOD1 mouse model of ALS
Assay: SOD1 mouse model of ALS: survival and cat-walk gait (Assay 4)
Type: in vivo
Conditions: daily treatments, N=16/treatment
Method: Analyses were conducted using PROC LIFEREG in SAS.
Additionally, three neurological function outcomes were chosen for analysis from those measured on a ‘cat-walk’ at irregular intervals over the duration of the study; stride length (cm), run duration (s), and swing speed (cm/s).
This non-random censoring of the treatment group data precluded using standard comparative statistical methods such as the t-test due the unverifiable compliance of the remaining data with required statistical test assumptions. Consequently, a Monte Carlo estimate of the p-value of the treatment differences was constructed using the bootstrap method.
Survival studies and behavioral tests will be performed in the SOD1 G93A model of ALS. This transgenic mouse harbors a point mutation (G93A), found in familial ALS, in the gene encoding for superoxide dismutase 1 (SOD1). This very well characterized mouse model is widely used in ALS research. […] Motor neuron death in the ventral horn of the spinal cord and loss of myelinated axons in the ventral motor roots lead to paralysis and muscle wasting. Mice initially develop normally and gain weight until approximately 100 days of age. […] To rigorously test the efficacy of candidates in this mouse model, neurological scores are monitored, and motor scores, life span, body weight and mice tested in a battery of behavioral paradigms suitable for motor assessment.

`Nc1nc2ccc(OC(F)(F)F)cc2s1` [riluzole, reference compound] was tested, and the “Increase over vehicle (median survival time)” value was 6%.
